Target: anti-dansyl mouse IgG2a(κ) variant with shorter heavy chains devoid of the CH1 domain (mouse)
Experiment: high-speed atomic force microscopy (HS-AFM); single-molecule dwell (binding) times of C1 or C1q on sparsely distributed antibodies on bare mica, no antigen; TNC buffer, 25 °C

Substance	residence time [s]	stoichiometry N
complement component C1 complex composed of C1q, C1r and C1s (from UniProt P02745 23-245; P02746 28-253; P02747 29-245)	> 10	1
complement component C1q (from UniProt P02745 23-245; P02746 28-253; P02747 29-245) (complex)	–	1
